The record followed here is the supplement of paper PMC11403291.

Protein sequences, listed by entry. Tags and fused reporters are not part of them. Lines headed by an entry give the natural chain unless they say otherwise; changes in a name come on top.
UniProt P27448: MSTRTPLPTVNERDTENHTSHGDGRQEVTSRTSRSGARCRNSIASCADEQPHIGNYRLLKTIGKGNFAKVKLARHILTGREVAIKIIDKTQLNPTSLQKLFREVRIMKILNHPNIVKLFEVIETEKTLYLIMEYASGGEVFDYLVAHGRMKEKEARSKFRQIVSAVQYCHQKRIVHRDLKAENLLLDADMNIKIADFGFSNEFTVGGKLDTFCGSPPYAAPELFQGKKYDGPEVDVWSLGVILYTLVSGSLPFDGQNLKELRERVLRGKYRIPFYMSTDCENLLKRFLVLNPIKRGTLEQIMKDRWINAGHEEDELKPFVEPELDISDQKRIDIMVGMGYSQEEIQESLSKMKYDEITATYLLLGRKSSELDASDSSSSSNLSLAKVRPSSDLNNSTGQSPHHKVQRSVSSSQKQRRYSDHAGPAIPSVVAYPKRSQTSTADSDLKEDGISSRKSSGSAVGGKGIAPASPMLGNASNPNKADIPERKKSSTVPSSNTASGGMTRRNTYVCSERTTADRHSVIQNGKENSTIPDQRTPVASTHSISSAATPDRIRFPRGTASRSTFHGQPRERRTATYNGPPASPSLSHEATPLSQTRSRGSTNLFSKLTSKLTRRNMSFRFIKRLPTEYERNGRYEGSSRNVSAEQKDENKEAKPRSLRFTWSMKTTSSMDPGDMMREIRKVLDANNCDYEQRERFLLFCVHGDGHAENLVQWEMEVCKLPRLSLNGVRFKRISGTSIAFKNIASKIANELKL
UniProt Q5VT25: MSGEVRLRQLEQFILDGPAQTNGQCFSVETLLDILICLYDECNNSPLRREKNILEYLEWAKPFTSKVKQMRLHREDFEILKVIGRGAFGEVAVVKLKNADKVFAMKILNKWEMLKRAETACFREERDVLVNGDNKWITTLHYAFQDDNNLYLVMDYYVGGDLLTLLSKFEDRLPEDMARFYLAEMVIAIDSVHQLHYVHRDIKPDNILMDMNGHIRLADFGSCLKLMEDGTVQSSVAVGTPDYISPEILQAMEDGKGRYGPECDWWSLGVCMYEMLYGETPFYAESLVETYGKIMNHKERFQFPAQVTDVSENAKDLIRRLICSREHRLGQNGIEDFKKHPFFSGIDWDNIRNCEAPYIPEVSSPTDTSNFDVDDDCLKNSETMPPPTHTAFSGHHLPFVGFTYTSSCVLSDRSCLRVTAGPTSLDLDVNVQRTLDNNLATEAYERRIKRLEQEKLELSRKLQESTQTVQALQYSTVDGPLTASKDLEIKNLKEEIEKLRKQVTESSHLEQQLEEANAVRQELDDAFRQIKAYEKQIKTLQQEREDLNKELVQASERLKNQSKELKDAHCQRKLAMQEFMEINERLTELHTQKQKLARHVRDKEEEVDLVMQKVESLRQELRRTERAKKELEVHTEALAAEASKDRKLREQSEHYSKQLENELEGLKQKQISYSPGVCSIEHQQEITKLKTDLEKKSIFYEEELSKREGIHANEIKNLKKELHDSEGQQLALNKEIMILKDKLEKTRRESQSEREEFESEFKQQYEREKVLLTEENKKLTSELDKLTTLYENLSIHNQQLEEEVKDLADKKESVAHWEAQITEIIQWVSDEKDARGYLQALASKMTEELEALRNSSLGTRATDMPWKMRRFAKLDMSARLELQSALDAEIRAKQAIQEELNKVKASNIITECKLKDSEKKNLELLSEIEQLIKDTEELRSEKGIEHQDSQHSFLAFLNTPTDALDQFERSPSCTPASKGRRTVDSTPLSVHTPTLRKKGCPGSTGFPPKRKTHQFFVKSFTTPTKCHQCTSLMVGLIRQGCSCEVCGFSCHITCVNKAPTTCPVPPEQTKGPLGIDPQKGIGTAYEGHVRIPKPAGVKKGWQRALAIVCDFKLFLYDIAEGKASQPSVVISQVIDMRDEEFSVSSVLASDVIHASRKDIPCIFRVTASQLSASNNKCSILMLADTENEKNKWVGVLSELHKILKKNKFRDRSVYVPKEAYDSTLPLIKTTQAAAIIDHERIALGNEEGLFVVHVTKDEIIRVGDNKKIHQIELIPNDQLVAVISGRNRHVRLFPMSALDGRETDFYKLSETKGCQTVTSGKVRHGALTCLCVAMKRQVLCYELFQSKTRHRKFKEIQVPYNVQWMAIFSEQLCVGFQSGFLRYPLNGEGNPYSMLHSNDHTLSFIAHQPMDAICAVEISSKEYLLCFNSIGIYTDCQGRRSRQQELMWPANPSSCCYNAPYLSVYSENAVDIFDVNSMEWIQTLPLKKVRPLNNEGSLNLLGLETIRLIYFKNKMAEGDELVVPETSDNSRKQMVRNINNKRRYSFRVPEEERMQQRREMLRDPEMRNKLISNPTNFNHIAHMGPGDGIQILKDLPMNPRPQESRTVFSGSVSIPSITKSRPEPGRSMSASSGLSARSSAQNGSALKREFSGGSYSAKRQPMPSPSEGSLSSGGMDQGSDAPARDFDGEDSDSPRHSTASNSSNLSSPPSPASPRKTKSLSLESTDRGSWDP

Molecules are shown by their SMILES.

What all share (test): apparent dissociation constant pKd app (kinobead competition) (-log10(M)); higher = stronger binding
The target in one assay is T1, EPHA1 (UniProt P21709).
T1 sequence (whole entry): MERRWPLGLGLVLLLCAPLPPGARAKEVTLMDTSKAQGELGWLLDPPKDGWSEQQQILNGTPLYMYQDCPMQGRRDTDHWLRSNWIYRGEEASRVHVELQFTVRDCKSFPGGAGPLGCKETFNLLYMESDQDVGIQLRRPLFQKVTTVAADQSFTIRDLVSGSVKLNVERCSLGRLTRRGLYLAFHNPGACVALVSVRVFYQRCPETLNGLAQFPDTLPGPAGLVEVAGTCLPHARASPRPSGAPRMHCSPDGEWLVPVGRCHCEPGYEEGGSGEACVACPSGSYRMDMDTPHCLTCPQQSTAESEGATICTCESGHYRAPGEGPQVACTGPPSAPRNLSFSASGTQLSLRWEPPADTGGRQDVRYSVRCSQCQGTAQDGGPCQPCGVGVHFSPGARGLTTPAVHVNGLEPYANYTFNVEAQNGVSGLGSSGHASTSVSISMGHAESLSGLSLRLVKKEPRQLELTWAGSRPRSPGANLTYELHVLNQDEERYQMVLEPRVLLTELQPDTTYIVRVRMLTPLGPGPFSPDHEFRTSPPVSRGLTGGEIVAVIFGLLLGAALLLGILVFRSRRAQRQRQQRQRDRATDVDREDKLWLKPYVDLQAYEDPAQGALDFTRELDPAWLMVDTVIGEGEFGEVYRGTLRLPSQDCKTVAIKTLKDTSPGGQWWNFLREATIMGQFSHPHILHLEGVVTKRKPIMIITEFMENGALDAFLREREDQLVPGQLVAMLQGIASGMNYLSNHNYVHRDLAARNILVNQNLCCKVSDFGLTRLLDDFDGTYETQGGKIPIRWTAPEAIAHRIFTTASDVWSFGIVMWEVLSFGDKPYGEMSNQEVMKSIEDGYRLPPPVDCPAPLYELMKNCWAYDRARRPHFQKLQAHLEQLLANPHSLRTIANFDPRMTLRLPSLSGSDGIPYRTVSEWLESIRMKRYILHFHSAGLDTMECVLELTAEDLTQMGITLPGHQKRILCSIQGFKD

The target of the next assay is T2, PRKX (UniProt P51817).
T2 sequence (whole entry): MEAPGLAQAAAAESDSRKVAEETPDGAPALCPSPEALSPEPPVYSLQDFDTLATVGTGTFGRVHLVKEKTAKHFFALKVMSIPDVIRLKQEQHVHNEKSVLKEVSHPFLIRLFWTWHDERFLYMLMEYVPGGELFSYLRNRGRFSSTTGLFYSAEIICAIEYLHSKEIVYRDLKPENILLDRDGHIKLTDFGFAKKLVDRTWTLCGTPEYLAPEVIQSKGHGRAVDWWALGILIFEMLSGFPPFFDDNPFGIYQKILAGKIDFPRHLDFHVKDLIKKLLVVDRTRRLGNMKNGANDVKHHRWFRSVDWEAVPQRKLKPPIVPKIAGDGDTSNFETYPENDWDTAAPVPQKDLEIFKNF

The target of a further assay is T3, MAP2K3 (UniProt P46734).
T3 sequence (whole entry): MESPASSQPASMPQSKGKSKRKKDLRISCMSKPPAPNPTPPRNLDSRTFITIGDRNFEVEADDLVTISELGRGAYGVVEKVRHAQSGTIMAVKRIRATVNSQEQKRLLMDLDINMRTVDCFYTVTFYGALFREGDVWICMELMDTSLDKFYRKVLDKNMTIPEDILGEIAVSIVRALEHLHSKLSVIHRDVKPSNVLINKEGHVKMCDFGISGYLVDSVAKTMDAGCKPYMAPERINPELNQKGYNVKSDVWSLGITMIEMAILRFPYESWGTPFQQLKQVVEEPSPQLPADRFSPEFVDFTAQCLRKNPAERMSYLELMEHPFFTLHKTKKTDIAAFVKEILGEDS

The target of a further assay is T4, IKBKE (UniProt Q14164).
T4 sequence (whole entry): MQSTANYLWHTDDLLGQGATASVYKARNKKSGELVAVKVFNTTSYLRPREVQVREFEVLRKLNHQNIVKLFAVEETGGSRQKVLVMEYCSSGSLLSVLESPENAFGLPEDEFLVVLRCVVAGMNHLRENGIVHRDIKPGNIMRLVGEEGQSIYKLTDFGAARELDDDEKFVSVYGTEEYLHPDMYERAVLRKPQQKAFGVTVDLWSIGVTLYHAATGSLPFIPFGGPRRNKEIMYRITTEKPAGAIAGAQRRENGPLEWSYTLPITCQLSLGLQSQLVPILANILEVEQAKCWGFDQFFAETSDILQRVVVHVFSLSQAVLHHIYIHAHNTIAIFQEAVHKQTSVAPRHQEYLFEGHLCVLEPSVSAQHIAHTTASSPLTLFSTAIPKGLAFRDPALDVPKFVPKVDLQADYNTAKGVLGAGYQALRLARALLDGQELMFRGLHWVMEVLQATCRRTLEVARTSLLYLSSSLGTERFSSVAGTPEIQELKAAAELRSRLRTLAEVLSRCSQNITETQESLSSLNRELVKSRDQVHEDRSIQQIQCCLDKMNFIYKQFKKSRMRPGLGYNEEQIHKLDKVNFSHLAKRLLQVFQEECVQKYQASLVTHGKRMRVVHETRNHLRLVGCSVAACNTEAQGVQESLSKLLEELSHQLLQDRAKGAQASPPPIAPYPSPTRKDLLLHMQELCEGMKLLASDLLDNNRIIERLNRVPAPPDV

The target of the next assay is MARK3 (UniProt P27448).
The next assay has as its target CDC42BPA (UniProt Q5VT25).

For the compound `NC(=O)c1cccc2cn(-c3ccc([C@@H]4CCCNC4)cc3)nc12` [Niraparib], the “apparent dissociation constant pKd app (-log10)” value on EPHA1 is < 4.7; at PRKX, < 4.6; on MAP2K3, < 4.5; at IKBKE, < 4.6; at MARK3, < 4.6; at CDC42BPA it was < 4.5.
As for `Cn1ncnc1[C@H]1c2n[nH]c(=O)c3cc(F)cc(c23)N[C@@H]1c1ccc(F)cc1` [Talazoparib], the “apparent dissociation constant pKd app (-log10)” value was < 4.7 at EPHA1; < 4.6 at PRKX; < 4.5 on MAP2K3; < 4.6 at IKBKE; < 4.6 at MARK3; < 4.5 on CDC42BPA.
Regarding `O=C(c1cc(Cc2n[nH]c(=O)c3ccccc23)ccc1F)N1CCN(C(=O)C2CC2)CC1` [Olaparib], the “apparent dissociation constant pKd app (-log10)” value is < 4.7 on EPHA1; < 4.6 on PRKX; < 4.5 at MAP2K3; < 4.6 at IKBKE; < 4.6 on MARK3; < 4.5 at CDC42BPA.
